According to patent US20050036994A1, “Compounds and methods for downregulating the effects of TGF-beta” (priority 2003, published 2005):

Tests used:
[1] = tested on: T8-IIM cells; test: 3[H]-thymidine incorporation assay, T8-IIM cells exposed to TGF-β; format: cell-based, human; details: unmodified T8-IIM cells exposed to TGF-β
Text: Prior to using human AHSG to develop a therapy to modify cells of the immune system, we had to be certain of its abilities to block the actions of TGF-β. […] The first step was to use RT-PCR to amplify from total HepG2 RNA the AHSG sequence and clone this cDNA into an expression vector driven by the SRa promoter. The resulting expression vector was called pSRα-AHSG (see map 1) [FIG. 5]. […] The first set of experiments used T8-IIM cells because the growth of these cells is known to be inhibited by TGF-β (Miyamoto, K. et al Jpn J Concer Res 82:1178 (1991)).
In order to be useful as cell based cancer therapy, cellular expression of AHSG must have the ability to antagonize the effects of TGF-β. For these experiments, we chose the T8-IIM cells because this is a CD8+cell line and its immune function is dependent on TGF-β. Exposure of unmodified T8-IIM cells to TGF-β suppressed their ability to incorporate ^3[H]-thymidine to 79±4% when compared to control. […] In these cells, the incorporation of ^3[H]-thymidine was the same as that from cells not exposed to TGF-β. This finding meant that the expression of AHSG blocked the suppressing effects of TGF-β. Since TGF-β expressing cancer cells use this mechanism to escape detection from immune system cells, this observation supported our goal to alter the inherent activity of CTLs to thus by-pass the cloaking mechanisms used by cancer cells.

[2] = tested on: mouse spleen T-cell lymphocytes; test: 3[H]-thymidine incorporation assay, mouse spleen T-cell lymphocytes exposed to TGF-β; format: cell-based; details: control mouse T-cell lymphocytes exposed to TGF-β
Experimental: In humans, the PBMC provides a source of lymphocytes but in the mouse, the spleen is a more practical source of such cells. The spleen from a C57BL mouse was excised, minced, squeezed using flat top forceps and suspended in 10 ml of RPMI containing 10% FCS. The cell suspension was allowed to sit for 5 minutes at room temperature to allow the large pieces of the spleen to separate from the suspension of single cells. The supernatant yielded a suspension of single cell lymphocytes that was carefully transferred to another tube. The single cell suspension of lymphocyte cells was collected by centrifugation at 150×g for 5 min. Erythrocytes were removed by centrifugation using a discontinuous gradient of Ficoll-Hypaque. The lymphocytes were collected by removing the band of interest from the gradient and then washed with RPMI containing 5% heat inactivated FCS. These cells were cultured for 3 to 5 days in RPMI containing 4 μg/ml Concanavalin A, 5% heat inactivated FCS, 200 units/ml IL2, 5 μg/ml insulin, 10 μg/ml transferrin and 50 μM β-mercaptoethanol. Concanavalin A is a mitogen for lymphocytes.
In these studies, mouse spleen cells were treated with IL-2 and concanavalin A to stimulate the proliferation of T-cell lymphocytes. These activated T-cell lymphocytes were utilized to examine the effect of AHSG. […]

[3] = tested on: Jurkat cells; test: 3[H]-thymidine incorporation assay, Jurkat cells exposed to TGF-β; details: control Jurkat cells exposed to TGF-β (2 ng/ml)
[4] = tested on: human CD8+ lymphocytes from peripheral blood; test: 3[H]-thymidine incorporation assay, CD8+ cells enriched from human peripheral lymphocytes exposed to TGF-β; format: cell-based; details: native human CD8+ cells exposed to TGF-β
Text: Human peripheral blood mononuclear cells (PBMC) containing T lymphocytes were obtained from healthy adults under informed consent. The desired fraction of the cells enriched for T-lymphocytes were isolated using standard Ficoll-Hypaque gradient centrifugation. The specific population of the lymphocytes may be advantageously separated from PBMC using ferric beads coated with an antibody that is specific to a surface marker on the desired lymphocytes. Cytotoxic T-cells, one of the most important cells for tumor immunity, express a surface marker protein called CD8. CD8^+ cells were enriched from the total PBMC using Dynabeads coated with an antibody directed against human CD8 (Dynal Inc, NY). Lymphocytes that bound to the beads were collected using a magnet and dissociated from the ferric beads using DNase I to digest a spacer DNA molecule that linked the ferric beads to the specific IgG. Following release of the cells, the residual ferric beads were removed using a magnet. This method helped to enrich for CD8^+ cells so that the population comprised 90 to 95% of such cells when assayed using FACS analysis. The resulting population of the cells was called CD8^+ enriched cells. […]

TGF-β: active form of TGF-β1 (R&D Systems or BioShop Canada) added to lymphocytes
3[H]-thymidine incorporation compared to control [1]: 79±4% | 3[H]-thymidine incorporation compared to untreated cells [2]: 79% | 3[H]-thymidine incorporation of control cells [3]: 57% | 3[H]-thymidine incorporation compared to control treated cells [4]: 63+/−2%
